Consider one molecule from patent US7169905 (dated 2007).

Test [1] concerns the target T1, IL-1 receptor (human, UniProt P14778).
T1 chain: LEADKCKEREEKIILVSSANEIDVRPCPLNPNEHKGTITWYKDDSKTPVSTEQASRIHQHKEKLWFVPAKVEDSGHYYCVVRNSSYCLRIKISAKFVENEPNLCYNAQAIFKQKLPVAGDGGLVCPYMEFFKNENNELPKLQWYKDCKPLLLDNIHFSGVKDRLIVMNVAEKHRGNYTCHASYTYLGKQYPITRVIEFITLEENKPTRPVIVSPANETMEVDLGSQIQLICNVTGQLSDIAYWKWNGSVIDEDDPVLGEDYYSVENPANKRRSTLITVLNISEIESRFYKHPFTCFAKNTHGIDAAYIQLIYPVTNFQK
Description: competition.

Test [2] concerns the target T1, IL-1 receptor. The experiment in a line: competition.

B1: IL-1ra (protein)
chain: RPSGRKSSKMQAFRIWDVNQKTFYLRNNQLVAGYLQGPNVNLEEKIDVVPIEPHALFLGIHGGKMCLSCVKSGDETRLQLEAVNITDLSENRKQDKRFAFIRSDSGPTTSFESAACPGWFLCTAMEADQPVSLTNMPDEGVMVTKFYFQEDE
For the molecule B1, the midpoint of the response with IL-1 receptor [1], the EC50, lay at 2.65 nM. Moreover, in the test with IL-1 receptor [2], the Ki came out at 1.41 nM.

The EC50 is the concentration that produces a half-maximal response. Read a low EC50 as a more potent agent. A word on the Ki: it is the equilibrium dissociation constant of an inhibitor or competing ligand from its target. Higher therefore signals lower affinity.
